The values that follow come from PubChem BioAssay AID602314 (ICCB-Longwood Screening Facility, Harvard Medical School, 2012).

The list shows a part of the results, in another mix than the full data. The source made the active and inactive calls. Rule as the data show it: active = inhibition above about 30% (passing the limit was not always enough); inactive = the rest.

The subject of this assay is MgrA (MarR family transcriptional regulator), Staphylococcus aureus Newman. As to the kind of experiment: modulators of MgrA DNA binding – biochemical, S. aureus Newman, fluorescence polarization, primary screen (AID 602314).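 Also: 0% = protein plus DNA without compound and 100% = DNA alone without protein; higher means less MgrA bound to DNA so lower polarization.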 The conditions noted are these: hits give high values, concentration not given here. (In fluorescence polarisation assays a small probe gives low polarisation when free and higher when bound to something large.)
For orientation: inhibition means the change of the read-out against control, counted positive when it falls. On to `CN(CCCl)CCCl`, for which the inhibition was inactive: -1.25%.
